Laboratory results published in patent US11045519B2, “Arginine-rich polypeptide compositions and methods of using same” (UNM Rainforest Innovations, priority 2017, dated 2021).

Tested on: HPV16 pseudovirions (PsVs)
Conditions: read-out: IC50 of HPV16 PsV infection of HaCaT cells; pretreatment before PsV exposure, 24 h, two independent duplicate experiments

N=C(N)NCCC[C@H](NC(=O)[C@H](CCCNC(=N)N)NC(=O)[C@H](CCCNC(=N)N)NC(=O)[C@H](CCCNC(=N)N)NC(=O)[C@H](CCCNC(=N)N)NC(=O)[C@H](CCCNC(=N)N)NC(=O)[C@H](CCCNC(=N)N)NC(=O)[C@H](CCCNC(=N)N)NC(=O)[C@@H](N)CCCNC(=N)N)C(=O)O [R9, arginine nonapeptide]
IC50: 1550 nM
